In patent publication US20140328918A1, “METHODS OF TREATING A SUBJECT AND RELATED PARTICLES, POLYMERS AND COMPOSITIONS” (CERULEAN PHARMA INC., priority 2010, published 2014):

Assay: Lyophilization and reconstitution of PEGylated nanoparticles: appearance and particle size (Zetasizer)
Assay type: physicochemical
Settings: nanoparticles A, lyoprotectant 100 mg/mL

What does the source list for `OC[C@H]1O[C@@](CO)(O[C@H]2O[C@H](CO)[C@@H](O)[C@H](O)[C@H]2O)[C@@H](O)[C@@H]1O` [Sucrose, sucrose]?
Dv90 (polymer 26.05 mg/mL (3.8:1)): 124 nm; Dv90 (sucrose cycle, polymer 31.25 mg/mL (3.2:1)): 124 nm
